The results in this text go back to article PMC5858560 (2011).

Sequences of proteins named here, by UniProt entry; tags and fusion partners are left off. A change or cut given only in a name is not applied to a line headed by its entry.
UniProt Q12809: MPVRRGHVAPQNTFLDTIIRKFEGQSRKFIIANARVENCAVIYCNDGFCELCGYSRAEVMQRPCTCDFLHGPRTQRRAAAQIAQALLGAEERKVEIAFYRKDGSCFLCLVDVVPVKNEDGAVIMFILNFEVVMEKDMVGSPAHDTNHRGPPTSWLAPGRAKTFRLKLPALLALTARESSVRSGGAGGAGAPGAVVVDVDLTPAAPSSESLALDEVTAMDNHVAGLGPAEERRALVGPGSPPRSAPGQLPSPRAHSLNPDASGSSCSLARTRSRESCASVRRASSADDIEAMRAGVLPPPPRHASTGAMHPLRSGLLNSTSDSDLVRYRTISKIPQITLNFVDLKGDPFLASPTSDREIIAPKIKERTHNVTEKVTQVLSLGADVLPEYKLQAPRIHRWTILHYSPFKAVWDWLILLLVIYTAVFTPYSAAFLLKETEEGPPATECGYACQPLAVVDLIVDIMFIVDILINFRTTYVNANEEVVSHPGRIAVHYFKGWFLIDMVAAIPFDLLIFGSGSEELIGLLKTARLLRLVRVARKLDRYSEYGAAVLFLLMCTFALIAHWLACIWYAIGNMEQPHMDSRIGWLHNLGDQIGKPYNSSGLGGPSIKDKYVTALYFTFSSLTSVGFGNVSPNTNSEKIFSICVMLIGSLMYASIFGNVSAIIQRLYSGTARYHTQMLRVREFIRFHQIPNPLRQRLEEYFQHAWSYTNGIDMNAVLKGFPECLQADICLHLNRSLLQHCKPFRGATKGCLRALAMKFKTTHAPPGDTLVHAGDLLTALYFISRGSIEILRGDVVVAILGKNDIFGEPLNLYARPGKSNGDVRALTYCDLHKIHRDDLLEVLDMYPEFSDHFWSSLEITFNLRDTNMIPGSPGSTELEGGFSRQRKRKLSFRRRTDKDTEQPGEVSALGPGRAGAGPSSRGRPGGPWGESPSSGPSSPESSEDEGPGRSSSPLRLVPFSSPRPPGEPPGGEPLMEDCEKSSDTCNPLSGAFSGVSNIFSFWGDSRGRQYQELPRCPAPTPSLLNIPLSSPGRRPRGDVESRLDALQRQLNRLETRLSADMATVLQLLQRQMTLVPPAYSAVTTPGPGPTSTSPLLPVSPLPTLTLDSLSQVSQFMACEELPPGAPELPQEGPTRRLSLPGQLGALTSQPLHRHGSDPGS

Structures are written as SMILES.

For the data set, the target named is hERG channel (Homo sapiens, UniProt Q12809). The experiment in a line: PatchXpress hERG channel assay in CHO-hERG cells. It counts as cell-based. To be noted: read-out: IC50 of hERG inhibition. On the technique in general: The hERG channel carries a current that helps repolarise heart muscle cells.

As usually defined, the IC50 is the point on the concentration scale where inhibition reaches its midpoint. On to `COCCNCCCn1c(C(=O)CF)c(-c2ccc(C)cc2)c2c(N)ncnc21` [RSK FMK-MEA, fluoromethylketone methoxyethylamine], for which the IC50 turned out to be 2200 nM.
